Measured values taken from US9789082B2, “Somatostatin receptor subtype 4 (SSTR4) agonists” (Centrexion Therapeutics Corporation, priority 2013, dated 2017).

Amino acid sequences for entries named in this document (tags omitted). A change or cut given only in a name is not applied to a line headed by its entry.
UniProt P31391: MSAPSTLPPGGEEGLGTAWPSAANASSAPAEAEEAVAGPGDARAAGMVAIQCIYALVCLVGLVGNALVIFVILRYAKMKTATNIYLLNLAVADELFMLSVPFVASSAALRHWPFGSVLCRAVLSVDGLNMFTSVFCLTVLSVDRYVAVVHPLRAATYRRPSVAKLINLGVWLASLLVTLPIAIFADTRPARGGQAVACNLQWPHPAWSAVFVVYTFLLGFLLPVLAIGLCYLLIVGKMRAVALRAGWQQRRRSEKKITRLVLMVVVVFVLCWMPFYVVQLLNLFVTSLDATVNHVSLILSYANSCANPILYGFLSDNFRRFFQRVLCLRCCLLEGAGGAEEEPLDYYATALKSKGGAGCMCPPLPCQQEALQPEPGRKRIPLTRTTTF

Tested on: not listed separately
Assay: Metabolic stability in pooled human liver microsomes (half-life)
Assay type: in vitro ADME
Settings: 37° C., 1 μM test compound
Experimental: The metabolic stability of the compounds according to the invention may be investigated as follows:
The metabolic degradation of the test compound is assayed at 37° C. with pooled human liver microsomes. The final incubation volume of 100 μl per time point contains TRIS buffer pH 7.6 at room temperature (0.1 M), magnesium chloride (5 mM), microsomal protein (1 mg/mL) and the test compound at a final concentration of 1 μM. Following a short preincubation period at 37° C., the reactions are initiated by addition of beta-nicotinamide adenine dinucleotide phosphate, reduced form (NADPH, 1 mM), and terminated by transferring an aliquot into solvent after different time points. After centrifugation (10000 g, 5 min), an aliquot of the supernatant is assayed by LC-MS/MS for the amount of parent compound. The half-life is determined by the slope of the semi-logarithmic plot of the concentration-time profile.
With `Cc1nnc(C(C)(C)NC(=O)[C@H]2[C@@H]3CNC[C@@H]32)c2ccccc12` [Example 77] the “Half-life t1/2” value was >2.17 h. With `CC(C)(NC(=O)[C@H]1[C@@H]2CNC[C@@H]21)c1ncnc2ccccc12` [Example 89] the “Half-life t1/2” value was >2.17 h. In the case of `CC(C)(NC(=O)[C@H]1[C@@H]2CNC[C@@H]21)c1cncc2ccccc12` [Example 90], the “Half-life t1/2” value is reported as >2.17 h. With `Cc1cccc2c(C(C)(C)NC(=O)[C@H]3[C@@H]4CNC[C@@H]43)noc12` [Example 92] the “Half-life t1/2” value was >2.17 h. In the case of `CC(C)(NC(=O)[C@H]1[C@@H]2CNC[C@@H]21)c1noc2c(Cl)cccc12` [Example 103], the “Half-life t1/2” value is reported as >2.17 h. With `CC(C)(NC(=O)[C@H]1[C@@H]2CNC[C@@H]21)c1noc2c(C3CC3)cccc12` [Example 104] the “Half-life t1/2” value was >2.17 h.

Target: human Somatostatin 4 receptor (SSTR4) (Homo sapiens (Human), UniProt P31391)
Assay: cAMP assay with human somatostatin 4 receptor (hSSTR4 expressing H4 cells)
Assay type: cell-based
Settings: read-out: SSTR4 agonism EC50
Experimental: Camp Assay Method Description for cAMP Assay with Human Somatostatin 4 Receptor
The activation of the SSTR4 receptor (Gi coupled) causes an inhibition of intracellular cAMP after stimulation with Forskolin, which can be quantifiable by use of a suitable assay Kit and an adequate plate reader. This technique is used to characterize pharmacological effects of the SSTR4 receptor agonists by use of hSSTR4 expressing H4 cells.
Compounds are dissolved and diluted in DMSO. The final test solution contains 1% DMSO. […] Cells are centrifuged and suspended in assay buffer (incl. 1:100 diluted Alexa antibody).
For the assay 5 μl of a cell suspension (approximately 5000 cells/well)—incl. Alexa antibody (diluted 1:100) are added into a 384 well MTP microtitre plate excepting one row or column (depending on the plate layout), which is reserved for the standard curve. Then 2 μl of compound sample is added as concentration response curve (e.g. 1e-5 M to 6e-10 M), usually in triplicates. Each assay contains incubations with vehicle controls instead of compound as controls for non-inhibited cAMP generation (100% CTL; ‘high values’) and incubations with 1 μM Somatosatin as controls for full inhibition and background (0% CTL; […]). […] Then the plates are shaken briefly and incubated for 60 min at room temperature. After 60 min 10 μl of the detection mix is added into all wells followed by an additional incubation period of 1 h. The plates are read in a suitable plate reader.
From this ratio, cAMP concentrations are calculated from standard curve and the EC50 is estimated by least square curve fit program.
The EC50 values were obtained with the aid of the above described cAMP ASSAY.
Work on `Cc1ccc(C(C)(C)NC(=O)[C@H]2[C@@H]3CNC[C@@H]32)c2nccn12` [Example 79] yielded an EC50 of 83.7 nM. `Cc1cc2c(C)ccnc2c(C(C)(C)NC(=O)[C@H]2[C@@H]3CNC[C@@H]32)n1` [Example 170] showed an EC50 of 10.9 nM. `Cc1ccc2cc(C(C)(C)NC(=O)[C@H]3[C@@H]4CNC[C@@H]43)cn2c1` [Example 171] gave an EC50 of 61.5 nM.
